What is called IC50 is the concentration at which inhibition is half-maximal. Read a low IC50 as inhibition by little substance.

Protein sequences, listed by entry. Tags and fused reporters are not part of them. Lines headed by an entry give the natural chain unless they say otherwise; changes in a name come on top.
UniProt P78536: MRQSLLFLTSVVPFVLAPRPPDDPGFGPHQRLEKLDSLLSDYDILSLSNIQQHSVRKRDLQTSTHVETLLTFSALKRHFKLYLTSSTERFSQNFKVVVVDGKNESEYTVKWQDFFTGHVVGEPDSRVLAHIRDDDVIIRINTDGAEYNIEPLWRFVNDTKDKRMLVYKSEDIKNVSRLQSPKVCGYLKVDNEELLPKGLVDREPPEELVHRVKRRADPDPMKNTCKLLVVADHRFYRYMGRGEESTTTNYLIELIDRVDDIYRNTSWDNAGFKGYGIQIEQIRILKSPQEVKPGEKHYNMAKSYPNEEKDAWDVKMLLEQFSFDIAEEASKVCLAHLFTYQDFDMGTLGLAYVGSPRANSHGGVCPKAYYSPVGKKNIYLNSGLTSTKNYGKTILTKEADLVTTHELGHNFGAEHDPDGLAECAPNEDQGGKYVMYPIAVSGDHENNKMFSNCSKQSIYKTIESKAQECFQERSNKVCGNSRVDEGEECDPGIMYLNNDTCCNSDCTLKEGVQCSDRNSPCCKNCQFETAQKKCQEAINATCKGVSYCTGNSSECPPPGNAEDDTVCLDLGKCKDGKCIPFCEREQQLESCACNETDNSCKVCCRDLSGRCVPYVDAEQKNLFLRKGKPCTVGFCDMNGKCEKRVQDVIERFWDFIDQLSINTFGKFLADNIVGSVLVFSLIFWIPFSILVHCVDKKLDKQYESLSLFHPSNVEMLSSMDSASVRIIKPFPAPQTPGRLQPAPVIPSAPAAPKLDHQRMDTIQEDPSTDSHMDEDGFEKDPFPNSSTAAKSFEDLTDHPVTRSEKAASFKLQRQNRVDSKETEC

This test deals with Disintegrin and metalloproteinase domain-containing protein 17 (Homo sapiens, UniProt P78536). Put plainly: The substrate is used at 40 μM.

For the compound `CC#CCOc1ccc(S(=O)(=O)N(C)CC(C(=O)NO)N2CCN(S(C)(=O)=O)CC2)cc1` (stereo unspecified), 0.087 µM corresponded to half-maximal inhibition (IC50).
